Measurements taken from patent publication US12336991B2, “Factor XIIA inhibitors” (UNIVERSITY OF LEEDS, priority 2018, dated 2025).

Amino acid sequences for entries named in this document (tags omitted). Residues count along the entry.
UniProt P00748, 373-615 limits assumed: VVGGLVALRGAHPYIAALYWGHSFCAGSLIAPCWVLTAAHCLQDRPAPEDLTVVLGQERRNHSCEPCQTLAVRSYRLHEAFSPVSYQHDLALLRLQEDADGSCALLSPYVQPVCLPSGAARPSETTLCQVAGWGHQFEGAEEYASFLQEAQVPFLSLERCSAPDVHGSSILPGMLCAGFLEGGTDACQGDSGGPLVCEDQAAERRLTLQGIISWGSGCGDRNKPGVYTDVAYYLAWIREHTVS
UniProt P00748, 20-372 partner limits assumed: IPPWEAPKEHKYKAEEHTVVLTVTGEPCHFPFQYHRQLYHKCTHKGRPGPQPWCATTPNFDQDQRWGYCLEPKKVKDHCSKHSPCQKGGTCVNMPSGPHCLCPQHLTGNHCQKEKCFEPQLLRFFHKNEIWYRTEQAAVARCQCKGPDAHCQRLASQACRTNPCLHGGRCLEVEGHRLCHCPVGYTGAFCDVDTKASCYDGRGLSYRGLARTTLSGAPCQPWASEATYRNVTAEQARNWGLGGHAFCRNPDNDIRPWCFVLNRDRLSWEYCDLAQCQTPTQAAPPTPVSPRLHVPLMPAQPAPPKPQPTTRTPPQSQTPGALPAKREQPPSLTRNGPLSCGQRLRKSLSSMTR
UniProt P00742, 235-488 limits assumed: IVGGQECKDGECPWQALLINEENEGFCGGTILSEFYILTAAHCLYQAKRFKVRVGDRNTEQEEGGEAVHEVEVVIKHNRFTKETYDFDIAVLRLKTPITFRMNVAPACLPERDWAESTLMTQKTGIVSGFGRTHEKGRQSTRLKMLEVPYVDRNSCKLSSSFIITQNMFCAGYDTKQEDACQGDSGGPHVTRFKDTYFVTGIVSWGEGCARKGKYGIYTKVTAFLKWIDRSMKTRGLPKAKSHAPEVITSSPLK
UniProt P00742, 41-179 partner limits assumed: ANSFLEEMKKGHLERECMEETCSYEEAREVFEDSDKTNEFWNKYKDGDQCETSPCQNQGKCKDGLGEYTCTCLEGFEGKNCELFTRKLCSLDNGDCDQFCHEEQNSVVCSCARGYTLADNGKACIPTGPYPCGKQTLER

Legend:
FXIIa = FXIIa (Homo sapiens, UniProt P00748); experiment: Determination of Factor XIIa inhibition, chromogenic substrate S-2302 assay; settings: read-out: FXIIa alpha (Human) Ki
Experimental: (§1) The activities of the compounds of the invention have been determined in vitro using the following assays protocols for the screening of activity of FXIIa and other proteases. Each of these assays were performed in a purified system employing the use of chromogenic assays in microplate plate wells. Chromogenic peptide substrates mimicking natural protein substrates are attached via an amide bond to a chromogenic group. Paranitroaniline (pNA) is released from the peptide following catalyses by the proteolytic enzyme; the absorbance increases and can be monitored at 405 nm.
(§2) All compounds were dissolved in 100% (v/v) DMSO to a stock concentration of 10 mM, the highest concentration of compound used in each assay is 500 μM. The final concentrations of DMSO were 5% (v/v) in 50 mM Tris 137 mM NaC pH 7.4. Where no test compound was added a final concentration of 5% DMSO was employed.
Determination of Factor XIa Inhibition
Factor XIa activity was measured using a chromogenic substrate S-2302 (Chromogenix). […] Kinetic readings at 405 nm were monitored every 12 secs for a total duration of 3 hours at 37° C. Gradients of initial rates were determined and employed to calculate IC50 values. […]

thrombin = thrombin (Homo sapiens, UniProt P00734); experiment: Determination of selectivity: thrombin inhibition, chromogenic substrate GPR assay; settings: fold selectivity for FXIIa over thrombin
Experimental: as §1, §2
(§3) Determination of Selectivity
(§4) To determine selectivity of test compounds, these test compounds were assayed for inhibitory activity against other serine proteases including FXa and thrombin. […] Kinetic readings at 405 nm were monitored every 12 secs for a total duration of 3 hours at 37° C. Gradients of initial rates were determined and employed to calculate IC50 values. […]
(§5) Where [Substrate] denotes the concentration of substrate used in the assay and Km is the determined value of each enzyme with its own substrate. […]

FXa = FXa (Homo sapiens, UniProt P00742); experiment: Determination of selectivity: FXa inhibition, chromogenic substrate S2765 assay; settings: fold selectivity for FXIIa over FXa
Experimental: as §1, §2, §3, §4, §5

Row | Structure (SMILES) | Ki (FXIIa) | Thrombin (human)/FXIIa alpha (human) (thrombin) | FXa (human)/FXIIa alpha (human) (FXa)
1 | Cn1nnc2cc(CNC(=O)[C@@H]3C[C@@H](Cc4ccc(-c5cccnc5)cc4)CN3C(=O)[C@H]3C[C@@H](c4ccccc4)CN3)ccc21 | > 2000 nM | ++ (fold selectivity value of 10 to 100) | ∘∘
2 | NCc1ccc(CNC(=O)[C@@H]2CCCN2C(=O)[C@H](N)CCC(=O)N2CCC(C(F)(F)F)C2)cc1 (stereo partly drawn) | > 2000 nM | + (fold selectivity values less than 10) | ∘∘
